Patent publication US9822414B2, “In vitro method for predicting in vivo genotoxicity of chemical compounds” (priority 2011, dated 2017)
“And” between values parts separate entries of the source, which are not always exact repeats. Equal entries are not always repeated.

Experiments:
HepG2 cell [1] = assay: Class prediction of in vivo genotoxicity by the method of the invention (Ames stratification plus three-gene expression in HepG2); conditions: 62 compounds, three replicates, HepG2 24 h
PWWP2B = assay: Gene expression of PWWP2B in HepG2 cells exposed to compound (microarray, log2 treatment:control ratio); assay type: cell-based, human
Salmonella typhimurium = conditions: cited from earlier work
HepG2 cell [2] = test system: HepG2 cell

Structure (SMILES): CCN(CC)N=O [DEN]
- Prediction (class prediction results using the method of the invention) (HepG2 cell [1]): GTX
- Log2 treatment: control ratio PWWP2B (PWWP2B): 0.087 and 0.095 and 0.056
- Ames (Salmonella typhimurium): +
- At least ⅔ genes +? (HepG2 cell [2]): GTX
- Average result over three measurements (HepG2 cell [2]): GTX
